Measurements from PubChem BioAssay (EPA / NIEHS).
The list shows a part of the results, in another mix than the full data. Active and inactive are the calls of the source. Rule for the calls, unless noted: active = hit-call score of the fitted dose curve at least 0.9, where 1 is the maximum; inactive = score below 0.9.

Legend:
[1] = read-out: Actin alpha 1 (ACTA1), ACTA1 (gene 58); experiment: BSK_MyoF_ACTA1: BioMAP Diversity Plus: MyoF Assay for Actin alpha 1 (ACTA1) Biomarker Activity (AID 2284244); details: primary human lung fibroblasts
Outline: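 Human lung fibroblast (MyoF system) cultures dosed with test chemical; alpha-SMA measured by ELISA 24 h after dosing, normalized to DMSO control. Cytotoxicity tracked in parallel cultures by SRB total-protein staining.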

[2] = read-out: Interleukin 2 (IL2), IL2 (gene 3558); experiment: BSK_BT_xIL2: BioMAP Diversity Plus: BT Assay for Interleukin 2 (IL2) Biomarker Activity (AID 2284245); details: primary human B cells with PBMC
Outline: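 Human B cell plus PBMC co-culture, 24 h after chemical dosing; secreted IL-2 quantified by Luminex xMAP multiplex, fitted for signal gain against DMSO baseline.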

[3] = read-out: Basic fibroblast growth factor (bFGF), FGF2 (gene 2247); experiment: BSK_MyoF_bFGF: BioMAP Diversity Plus: MyoF Assay for Basic fibroblast growth factor (bFGF) Biomarker Activity (AID 2284246); details: primary human lung fibroblasts
Outline: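 Human lung fibroblast cultures were dosed and measured 24 h later in 96-well format. bFGF biomarker levels quantified by ELISA, with activity fitted in the positive direction against DMSO.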

[4] = read-out: Collagen IV, COL4A1 (gene 1282); experiment: BSK_MyoF_CollagenIV: BioMAP Diversity Plus: MyoF Assay for Collagen IV Biomarker Activity (AID 2284247); details: primary human lung fibroblasts
Outline: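 Primary human lung fibroblasts (MyoF system) dosed 24 h; Collagen IV measured by ELISA. Activity fitted in positive direction against DMSO; cytotoxicity tracked by SRB total-protein staining in parallel cultures.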

[5] = read-out: Plasminogen activator inhibitor-1 (PAI1), SERPINE1 (gene 5054); experiment: BSK_MyoF_PAI1: BioMAP Diversity Plus: MyoF Assay for Plasminogen activator inhibitor-1 (PAI1) Biomarker Activity (AID 2284256); details: primary human lung fibroblasts
Outline: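 Activity reflects increased PAI-1, determined by ELISA and compared with DMSO, in human lung fibroblasts treated for 24 h.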

[6] = read-out: Interleukin-8 (IL8), CXCL8 (gene 3576); experiment: BSK_MyoF_IL8: BioMAP Diversity Plus: MyoF Assay for Interleukin-8 (IL8) Biomarker Activity (AID 2284261); details: primary human lung fibroblasts
Outline: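 In this multiplexed primary-cell system, fibroblasts from human lung are treated with chemicals, and IL-8 is detected by ELISA at 24 h, with DMSO serving as the negative reference.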

Decorin, DCN (gene 1634) = experiment: BSK_MyoF_Decorin: BioMAP Diversity Plus: MyoF Assay for Decorin Biomarker Activity (AID 2284265); details: primary human lung fibroblasts
Outline: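 Lung fibroblast cultures, 24 h chemical exposure. Decorin by ELISA, positive fitting direction, DMSO baseline.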

[7] = BSK_MyoF_SRB: Viability Assessment in the BioMAP Diversity Plus: MyoF Assay (AID 2284267); details: primary human lung fibroblasts;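 note: total protein by SRB absorbance in parallel cultures as cytotoxicity measure; cells assessed 24 h after compound addition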
Outline: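 Human lung fibroblasts, 24 h after chemical dosing; total protein measured by 0.1% sulforhodamine B staining after 10% TCA fixation, read at 560 nm, fitted relative to DMSO baseline.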

[8] = read-out: Matrix Metallopeptidase 1 (MMP1), MMP1 (gene 4312); experiment: BSK_MyoF_MMP1: BioMAP Diversity Plus: MyoF Assay for Matrix Metallopeptidase 1 (MMP1) Biomarker Activity (AID 2284268); details: primary human lung fibroblasts
Outline: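 MMP1 measured by ELISA 24 h after dosing primary human lung fibroblasts; cytotoxicity checked in parallel cultures by sulforhodamine B total-protein staining read at 560 nm.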

[9] = read-out: TIMP metallopeptidase inhibitor 1 (TIMP1), TIMP1 (gene 7076); experiment: BSK_MyoF_TIMP1: BioMAP Diversity Plus: MyoF Assay for TIMP metallopeptidase inhibitor 1 (TIMP1) Biomarker Activity (AID 2284269); details: primary human lung fibroblasts
Outline: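 Primary human lung fibroblasts, MyoF multiplex system; chemical exposure 24 h; TIMP-1 by ELISA; positive fitting direction vs DMSO control.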

[10] = CCTE_Deisenroth_5AR_NBTE_donor: CCTE's 5alpha-reductase NanoBRET Target Engagement Assay […], Deisenroth Lab (AID 2284319); details: actives raise or lower the signal
Outline: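 Donor NanoLuc luminescence at 460-20 nm is the read-out, serving artifact detection. Transiently expressed SRD5A2-NanoLuc in HEK293T; 5 h total chemical exposure, testosterone tracer added for the final 2 h; fitting bidirectional relative to DMSO baseline.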

[11] = CCTE_Deisenroth_5AR_NBTE_acceptor: CCTE's 5alpha-reductase NanoBRET Target Engagement Assay - Autofluorescence Screen, Deisenroth Lab (AID 2284321); details: actives raise or lower the signal;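 note: compound fluorescence in the acceptor channel under 460 nm excitation flags autofluorescence artifacts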
Outline: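 Chemicals diluted to a nominal 100 uM in DMSO were scanned at 460 nm excitation. Samples were read in three independent runs (n=3). Gain or loss of acceptor signal was fitted relative to DMSO.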

SRD5A2 (gene 6716) = experiment: CCTE_Deisenroth_5AR_NBTE_ratio: CCTE's 5alpha-reductase NanoBRET Target Engagement Assay - Ratio, Deisenroth Lab (AID 2284322); details: actives raise or lower the signal
Outline: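 HEK293T transiently expressing SRD5A2-NanoLuc; cells exposed to chemical (8-point, 10 nM - 29.9 uM) for 5 h total, testosterone tracer added for final 2 h. NanoBRET acceptor/donor ratio (650/460 nm), bidirectional fit vs DMSO.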

SERPINA7 (gene 6906) = experiment: CCTE_GLTED_hTBG: CCTE's human Thyroxine-binding Globulin (TBG) Inhibition Assay, Great Lakes Toxicology and Ecology Division (GLTED) Lab (AID 2284343; active = hit-call score of the fitted dose curve at least 0.9, where 1 is the maximum;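 note: active chemicals lower fluorescence versus DMSO baseline by displacing probe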)
Outline: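 Human TBG incubated 2 h with test chemical; displacement of ANSA probe read by fluorescence, 380 nm excitation/475 nm emission. Loss of signal relative to DMSO.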

Compound | outcome [1] | outcome [2] | AC50 [3] | outcome [4] | AC50 [5] | AC50 [6] | outcome (Decorin, DCN (gene 1634)) | outcome [7] | AC50 [8] | outcome [9] | outcome [10] | outcome [11] | outcome (SRD5A2 (gene 6716)) | AC50 (SERPINA7 (gene 6906))
Cc1ccc([N+](=O)[O-])c([N+](=O)[O-])c1 | inactive | inactive | active: 0.591 µM | inactive | active: 0.115 µM | active: 11.8 µM | inactive | inactive | active: 20 µM | inactive |  |  |  | 
Cc1cccc([N+](=O)[O-])c1[N+](=O)[O-] |  |  |  |  |  |  |  |  |  |  | inactive | inactive | inactive | active: 35.8 µM
